Data as given in patent US10117433B2 (priority 2011, dated 2018).
Marks after values point to notes of the source that are not given here.

Legend:
[1] = system: Heliothis armigera; conditions: exposed to transgenic tobacco expressing Hv1a; cited from earlier work
[2] = system: sheep blowfly Lucilia cuprina; conditions: unpublished data (V. Herzig and G. F. K); cited from earlier work
[3] = system: M. brassicae larvae; assay: Injection toxicity of Hv1a/GNA and Hv1a in fifth stadium M. brassicae larvae; assay type: in vivo, Mamestra brassicae; conditions: for Mortality (%): 72 h after injection
[4] = system: housefly Musca domestica; conditions: recombinant Hv1a; cited from earlier work
[5] = system: lone star tick Amblyomma americanum; conditions: recombinant Hv1a; cited from earlier work
[6] = system: S. littoralis; conditions: exposed to transgenic tobacco expressing Hv1a; cited from earlier work

## ω-ACTX-Hv1a
[1]
  mortality: 100%
[2]
  LD50 per os compared with injection: 90 fold
[3]; dose 46 μg/insect (Hv1a equivalents)
  Mortality (%): 20%
[3]; dose 92 μg/insect (Hv1a equivalents)
  Mortality (%): 80* %
[3]; dose 184 μg/insect (Hv1a equivalents)
  Mortality (%): 90* %
[3]; injected with 92 μg toxin/g insect
  mortality: 80%
[4]
  LD50: 77 pmol/g
[5]
  LD50: 716 pmol/g
[6]
  mortality: 100%
